Test: Relative affinity for Dihydrofolate reductase of rat liver and Mycobacterium avium

Selectivity index: 560
SMILES: COc1ccc(OCCCC(=O)O)cc1Cc1cnc(N)nc1N

Source: ChEMBL document CHEMBL1136782, “Further studies on 2,4-diamino-5-(2',5'-disubstituted benzyl)pyrimidines as potent and selective inhibitors of dihydrofolate reductases from three major opportunistic pathogens of AIDS” (J Med Chem, 2003)
